# Results published in patent publication US11427548B2 (Arvinas Operations, Inc., priority 2015, dated 2022).
# The chains behind the UniProt entries cited, without tags or fusion partners.
# UniProt P10275, whole entry: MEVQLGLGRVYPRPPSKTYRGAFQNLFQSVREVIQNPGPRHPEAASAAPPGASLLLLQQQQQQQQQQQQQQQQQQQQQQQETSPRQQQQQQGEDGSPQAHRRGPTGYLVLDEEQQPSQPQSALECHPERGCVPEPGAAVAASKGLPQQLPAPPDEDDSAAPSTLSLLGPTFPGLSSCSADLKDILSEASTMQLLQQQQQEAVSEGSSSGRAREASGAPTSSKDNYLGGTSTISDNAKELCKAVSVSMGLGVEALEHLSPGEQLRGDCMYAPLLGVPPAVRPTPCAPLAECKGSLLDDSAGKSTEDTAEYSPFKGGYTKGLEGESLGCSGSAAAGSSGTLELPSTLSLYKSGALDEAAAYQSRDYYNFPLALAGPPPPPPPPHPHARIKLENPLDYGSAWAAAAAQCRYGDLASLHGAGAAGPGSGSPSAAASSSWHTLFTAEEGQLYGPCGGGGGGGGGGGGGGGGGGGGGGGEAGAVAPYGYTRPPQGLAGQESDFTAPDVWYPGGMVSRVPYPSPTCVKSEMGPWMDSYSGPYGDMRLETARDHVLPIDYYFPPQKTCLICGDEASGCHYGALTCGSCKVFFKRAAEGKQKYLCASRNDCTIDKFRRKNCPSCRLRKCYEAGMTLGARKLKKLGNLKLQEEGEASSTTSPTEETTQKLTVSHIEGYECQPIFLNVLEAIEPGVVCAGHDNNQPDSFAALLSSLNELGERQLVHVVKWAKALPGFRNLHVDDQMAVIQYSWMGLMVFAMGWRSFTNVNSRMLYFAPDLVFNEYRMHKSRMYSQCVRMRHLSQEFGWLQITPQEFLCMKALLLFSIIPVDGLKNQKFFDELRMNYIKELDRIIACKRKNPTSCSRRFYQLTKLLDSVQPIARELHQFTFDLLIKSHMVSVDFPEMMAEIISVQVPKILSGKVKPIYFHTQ
# UniProt P10275, whole entry T878A: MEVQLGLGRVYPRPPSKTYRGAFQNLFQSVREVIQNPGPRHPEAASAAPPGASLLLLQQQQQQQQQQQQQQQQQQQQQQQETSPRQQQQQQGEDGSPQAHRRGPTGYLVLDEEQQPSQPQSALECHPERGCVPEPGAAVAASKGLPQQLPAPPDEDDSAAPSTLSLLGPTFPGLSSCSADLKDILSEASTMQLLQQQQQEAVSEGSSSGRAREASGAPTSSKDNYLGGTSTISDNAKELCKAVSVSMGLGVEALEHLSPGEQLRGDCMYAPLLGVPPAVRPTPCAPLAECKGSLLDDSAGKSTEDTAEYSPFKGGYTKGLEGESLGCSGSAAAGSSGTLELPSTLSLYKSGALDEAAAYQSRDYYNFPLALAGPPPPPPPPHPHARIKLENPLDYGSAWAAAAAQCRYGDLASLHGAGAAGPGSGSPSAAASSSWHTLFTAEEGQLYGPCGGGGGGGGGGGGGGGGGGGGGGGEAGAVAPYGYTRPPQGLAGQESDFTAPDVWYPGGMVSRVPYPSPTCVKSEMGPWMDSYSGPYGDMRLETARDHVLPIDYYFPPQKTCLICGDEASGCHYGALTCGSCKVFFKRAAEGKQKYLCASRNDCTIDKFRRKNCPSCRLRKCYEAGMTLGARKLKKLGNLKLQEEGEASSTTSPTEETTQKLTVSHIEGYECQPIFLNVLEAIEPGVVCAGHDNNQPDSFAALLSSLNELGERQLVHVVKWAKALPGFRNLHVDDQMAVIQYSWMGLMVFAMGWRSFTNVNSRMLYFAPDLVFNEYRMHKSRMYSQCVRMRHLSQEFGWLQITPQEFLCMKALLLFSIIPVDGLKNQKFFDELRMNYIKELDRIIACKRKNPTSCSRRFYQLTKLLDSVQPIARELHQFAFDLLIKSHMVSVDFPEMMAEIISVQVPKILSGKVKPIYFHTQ
# UniProt P40337, whole entry: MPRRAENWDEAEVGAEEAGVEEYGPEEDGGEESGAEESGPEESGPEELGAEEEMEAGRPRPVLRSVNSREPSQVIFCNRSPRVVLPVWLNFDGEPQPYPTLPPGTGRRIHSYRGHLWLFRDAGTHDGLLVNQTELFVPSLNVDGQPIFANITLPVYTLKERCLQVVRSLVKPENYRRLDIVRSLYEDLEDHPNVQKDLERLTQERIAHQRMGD
# UniProt Q15370, whole entry partner: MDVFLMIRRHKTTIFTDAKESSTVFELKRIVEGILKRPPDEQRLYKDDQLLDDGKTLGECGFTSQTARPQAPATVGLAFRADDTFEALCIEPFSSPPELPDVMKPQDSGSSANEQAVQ
# UniProt Q15369, whole entry partner: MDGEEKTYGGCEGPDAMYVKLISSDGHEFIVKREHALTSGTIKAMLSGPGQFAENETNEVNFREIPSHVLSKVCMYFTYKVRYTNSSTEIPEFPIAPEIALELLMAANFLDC
# Experiments:
# Androgen Receptor [1] = biological target: Androgen Receptor (Homo sapiens, UniProt P10275); test: Androgen Receptor ELISA assay (PathScan AR ELISA) in VCaP cells: AR degradation, Dmax and DC50; assay type: cell-based
# Androgen Receptor [2] = biological target: Androgen Receptor (Homo sapiens, UniProt P10275+P40337, T878A); test: Androgen Receptor ELISA assay (PathScan AR ELISA) in LNCaP cells: AR degradation, Dmax and DC50; assay type: cell-based
SMILES,VCaP Dmax (%) (Androgen Receptor [1]; Table 34),"DC50 (Androgen Receptor [1]; read-out: VCaP DC50, Table 34) [µM]",further results
Cc1ncoc1-c1ccc(CNC(=O)[C@@H]2C[C@@H](O)CN2C(=O)[C@@H](NC(=O)COCCCCC(=O)N2CC=C(c3ccc(N4C(=S)N(c5ccc(C#N)c(Cl)c5)C(=O)C4(C)C)cc3)CC2)C(C)(C)C)cc1,+++ (51% ≤ Dmax ≤ 70%),< 0.05,–
C[C@H](NC(=O)[C@@H]1C[C@@H](O)CN1C(=O)[C@@H](NC(=O)COCCCOCCCCCOc1ccc(N2C(=S)N(c3ccc(C#N)c(C(F)(F)F)c3)C(=O)C2(C)C)cc1)C(C)(C)C)c1ccc(-n2ccnc2)cc1,–,–,"VCaP Dmax (%) (Androgen Receptor [1]; Table 36): ++ (26% ≤ Dmax ≤ 50%); DC50 (Androgen Receptor [1]; read-out: VCaP DC50, Table 36): > 0.501 µM"
Cc1ncsc1-c1ccc(CNC(=O)[C@@H]2C[C@@H](O)CN2C(=O)[C@H](C(C)C)N2Cc3ccccc3C2=O)c(OCCOCCOCCOCCOCCOCCOc2ccc(N3C(=S)N(c4ccc(C#N)c(C(F)(F)F)c4)C(=O)C3(C)C)cc2)c1,–,–,"LNCaP Dmax (%) (Androgen Receptor [2]; highest percentage of Androgen Receptor degradation): +++ (51% ≤ Dmax ≤ 70%); DC50 (Androgen Receptor [2]; read-out: LNCaP DC50, concentration that caused 50% Androgen Receptor degradation): 0.051 to 0.5 µM"
"Cc1ncoc1-c1ccc([C@H](C)NC(=O)[C@@H]2C[C@@H](O)CN2C(=O)[C@@H](NC(=O)COC[C@H]2CC3(C2)C[C@H](COc2ccc(N4C(=S)N(c5ccc(C#N)c(C(F)(F)F)c5)C(=O)C4(C)C)cc2)C3)C(C)(C)C)cc1 (single isomer, unassigned)",++++ (71% ≤ Dmax),< 0.05,–

# Where two headings read alike, the source gives them in different places.
